Read-outs that look alike come from different tables or passages of the source.

Amino acid sequences for entries named in this document (tags omitted).
UniProt Q56366, whole entry D141A/E143A/A485L: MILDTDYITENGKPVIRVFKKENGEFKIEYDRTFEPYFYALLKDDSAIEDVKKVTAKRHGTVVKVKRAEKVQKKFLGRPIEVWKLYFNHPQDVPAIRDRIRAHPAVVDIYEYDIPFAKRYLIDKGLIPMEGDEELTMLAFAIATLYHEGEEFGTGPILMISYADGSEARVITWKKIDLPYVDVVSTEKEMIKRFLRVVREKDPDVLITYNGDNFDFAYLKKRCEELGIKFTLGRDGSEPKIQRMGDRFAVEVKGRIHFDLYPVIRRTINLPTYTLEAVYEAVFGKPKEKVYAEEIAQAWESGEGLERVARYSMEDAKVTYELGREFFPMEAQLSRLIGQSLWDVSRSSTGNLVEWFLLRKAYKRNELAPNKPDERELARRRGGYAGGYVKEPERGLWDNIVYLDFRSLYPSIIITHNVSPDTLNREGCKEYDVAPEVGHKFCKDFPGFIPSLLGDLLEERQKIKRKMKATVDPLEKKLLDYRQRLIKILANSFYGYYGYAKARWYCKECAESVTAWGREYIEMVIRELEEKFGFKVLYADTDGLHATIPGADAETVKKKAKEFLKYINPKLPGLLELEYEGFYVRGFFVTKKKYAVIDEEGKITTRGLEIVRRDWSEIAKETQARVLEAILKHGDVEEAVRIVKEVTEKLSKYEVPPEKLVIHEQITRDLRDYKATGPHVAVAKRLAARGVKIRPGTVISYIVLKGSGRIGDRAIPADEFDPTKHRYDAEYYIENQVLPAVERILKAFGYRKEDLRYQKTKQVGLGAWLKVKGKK

The results in this text go back to US9200319B2, “Nucleotides and nucleosides and methods for their use in DNA sequencing” (Lasergen, Inc., priority 2008, dated 2015).

This assay addresses T1, THERMINATOR™ DNA polymerase (Thermococcus sp., UniProt Q56366, A485L/D141A/E143A).
T1 construct: purchased New England Biolabs
Format: biochemical, Thermococcus species 9° N-7. The following applies: concentration at which the compound incorporates on half the primer-template complexes, complement template base, read-out: IC50 for incorporation. How it is done: Natural and modified nucleotides were tested for incorporation efficiency using the “polymerase end point assay” (Wu et al., 2007, which is incorporated herein by reference). This assay examines incorporation efficiency on matched and mismatched template bases. Incorporation efficiency is measured by determining the concentration at which the compound incorporates on half the primer-template complexes (IC50). Titrations of increasing compound concentration were performed to generate curves from which the IC50 can be determined.
The sequence of the template DNA is selected depending on which compound will be tested. For example, the first interrogation base after the primer in the template sequence is the complement base of the compound when measuring incorporation efficiency, and one of three mismatched bases when measuring mismatch discrimination properties.
To the annealed reaction, a DNA polymerase (e.g., THERMINATOR™ DNA polymerase, 0.25 units per reaction, New England Biolabs), 1× Thermopol Buffer, and a known concentration of either natural or modified nucleotide are added to each 10 μL reaction and incubated at 75° C. for 10 minutes, cooled on ice, and quenched with 10 μL of stop solution (98% formamide: 10 mM Na2EDTA, pH=8.0, 25 mg/ml Blue Dextran). Stopped reactions are heated to 75° C. for 30 seconds to denature the DNA, and then placed on ice. The extension products are analyzed on a 10% Long Ranger (Lonza) polyacrylamide gel using an ABI model 377 DNA sequencer. Additional details are provided in Example 1, below.
Polymerase Assays. Natural and modified nucleotides were tested for incorporation efficiency using the “polymerase end point assay” (Wu et al., 2007, which is incorporated herein by reference). This assay examines incorporation efficiency on matched and mismatched template bases. Incorporation efficiency is measured by determining the concentration at which the compound incorporates on half the primer-template complexes (IC50). Titrations of increasing compound concentration were performed to generate curves from which the IC50 can be determined. […]
To the annealed reaction, a DNA polymerase (e.g., THERMINATOR™ DNA polymerase, 0.25 units per reaction, New England Biolabs), 1× Thermopol Buffer, and a known concentration of either natural or modified nucleotide are added to each 10 μL reaction and incubated at 75° C. for 10 minutes, cooled on ice, and quenched with 10 μL of stop solution (98% formamide: 10 mM Na2EDTA, pH=8.0, 25 mg/ml Blue Dextran). […] The extension products are analyzed on a 10% Long Ranger (Lonza) polyacrylamide gel using an ABI model 377 DNA sequencer.

For the substance “5-(α-isopropyl-2-nitrobenzyloxy)methyl-2′-dCTP-Cy5 [6p017]”, the IC50 was 4.8 ± 1.9 nM. Moreover, the IC50 (listed as 6p038/6p017) came to 5.1 ± 1.4 nM.
On to “5-(α-isopropyl-2-nitrobenzyloxy)methyl-2′-dUTP-6-JOE [6p008]”, for which the IC50 was 9 ± 1.4 nM.
For “6-FAM labeled 7-{(R)-1-[4-(3-amino-1-propynyl)-2-nitrophenyl]-2-methyl-propyloxy}methyl-7-deaza-2′-deoxyadenosine-5′-triphosphate [5p127]”, the IC50 came to 6.4 ± 1 nM.
